One compound from ChEMBL document CHEMBL4308853, “Design, Synthesis, and Pharmacological Evaluation of Novel β2/3 Subunit-Selective γ-Aminobutyric Acid Type A (GABAA) Receptor Modulators” (J Med Chem, 2018) can be followed below.

Protein sequences, listed by entry. Tags and fused reporters are not part of them. Residues count along the entry.
UniProt P14867, 28-456 limits assumed: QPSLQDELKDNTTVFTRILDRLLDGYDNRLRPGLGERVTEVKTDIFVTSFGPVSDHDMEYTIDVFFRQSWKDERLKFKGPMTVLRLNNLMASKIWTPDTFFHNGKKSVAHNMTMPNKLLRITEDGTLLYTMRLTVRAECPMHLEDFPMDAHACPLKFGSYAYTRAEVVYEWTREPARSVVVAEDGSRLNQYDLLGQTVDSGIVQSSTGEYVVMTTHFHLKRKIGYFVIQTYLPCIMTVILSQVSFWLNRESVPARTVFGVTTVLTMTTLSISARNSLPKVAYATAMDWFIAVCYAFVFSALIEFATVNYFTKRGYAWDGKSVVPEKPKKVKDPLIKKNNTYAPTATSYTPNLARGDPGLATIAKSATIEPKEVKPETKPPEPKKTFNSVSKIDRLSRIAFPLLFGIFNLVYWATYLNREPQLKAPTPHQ
UniProt P18507, 40-475 limits assumed: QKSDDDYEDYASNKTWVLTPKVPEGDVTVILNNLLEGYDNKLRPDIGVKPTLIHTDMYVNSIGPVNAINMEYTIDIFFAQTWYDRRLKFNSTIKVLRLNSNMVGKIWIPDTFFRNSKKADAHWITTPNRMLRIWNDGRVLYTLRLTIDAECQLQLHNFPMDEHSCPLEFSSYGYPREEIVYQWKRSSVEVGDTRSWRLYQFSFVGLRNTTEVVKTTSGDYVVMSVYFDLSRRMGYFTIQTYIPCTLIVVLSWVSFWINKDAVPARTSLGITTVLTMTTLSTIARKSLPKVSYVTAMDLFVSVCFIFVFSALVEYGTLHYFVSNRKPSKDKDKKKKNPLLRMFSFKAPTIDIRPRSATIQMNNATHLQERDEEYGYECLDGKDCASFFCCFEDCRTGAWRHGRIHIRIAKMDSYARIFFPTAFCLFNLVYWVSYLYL
UniProt P18505, 26-474 limits assumed: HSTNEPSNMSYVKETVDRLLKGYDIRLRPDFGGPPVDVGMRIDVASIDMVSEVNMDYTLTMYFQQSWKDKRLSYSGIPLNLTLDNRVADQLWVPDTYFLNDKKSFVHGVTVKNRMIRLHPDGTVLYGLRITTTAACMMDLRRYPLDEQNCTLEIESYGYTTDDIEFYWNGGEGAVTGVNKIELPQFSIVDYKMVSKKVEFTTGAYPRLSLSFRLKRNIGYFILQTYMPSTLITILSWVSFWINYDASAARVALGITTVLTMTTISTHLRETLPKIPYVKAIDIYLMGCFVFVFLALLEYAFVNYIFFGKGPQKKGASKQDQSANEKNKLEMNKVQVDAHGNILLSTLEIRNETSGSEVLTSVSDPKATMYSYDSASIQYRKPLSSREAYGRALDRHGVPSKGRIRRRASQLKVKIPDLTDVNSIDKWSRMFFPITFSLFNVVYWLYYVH

Molecules are shown by their SMILES.

The data set deals with GABA A receptor alpha-1/beta-1/gamma-2 (Homo sapiens, UniProt P14867+P18507+P18505). Nature of the data set: Positive allosteric modulation of GABA-A alpha1beta1gamma2S receptor (unknown origin) expressed in Xenopus laevis oocytes assessed as increase in GABA-induced chloride current at 300 uM after 15 mins at -70 mV holding potential by two-microelectrode voltage clamp method relative to control. The class given is cell-based. The conditions noted are these: 0.25 h.

Take `CC(=C(C#N)C#N)c1ccc(Cl)cc1Cl`: the Emax came to 854%.

In general, Emax refers to the maximal effect, on the per cent scale that the assay sets.
